From ChEMBL document CHEMBL4359905, “Discovery, structural insight, and bioactivities of BY27 as a selective inhibitor of the second bromodomains of BET proteins” (Eur J Med Chem, 2019)

Protein sequences, listed by entry. Tags and fused reporters are not part of them.
UniProt P25440, whole entry: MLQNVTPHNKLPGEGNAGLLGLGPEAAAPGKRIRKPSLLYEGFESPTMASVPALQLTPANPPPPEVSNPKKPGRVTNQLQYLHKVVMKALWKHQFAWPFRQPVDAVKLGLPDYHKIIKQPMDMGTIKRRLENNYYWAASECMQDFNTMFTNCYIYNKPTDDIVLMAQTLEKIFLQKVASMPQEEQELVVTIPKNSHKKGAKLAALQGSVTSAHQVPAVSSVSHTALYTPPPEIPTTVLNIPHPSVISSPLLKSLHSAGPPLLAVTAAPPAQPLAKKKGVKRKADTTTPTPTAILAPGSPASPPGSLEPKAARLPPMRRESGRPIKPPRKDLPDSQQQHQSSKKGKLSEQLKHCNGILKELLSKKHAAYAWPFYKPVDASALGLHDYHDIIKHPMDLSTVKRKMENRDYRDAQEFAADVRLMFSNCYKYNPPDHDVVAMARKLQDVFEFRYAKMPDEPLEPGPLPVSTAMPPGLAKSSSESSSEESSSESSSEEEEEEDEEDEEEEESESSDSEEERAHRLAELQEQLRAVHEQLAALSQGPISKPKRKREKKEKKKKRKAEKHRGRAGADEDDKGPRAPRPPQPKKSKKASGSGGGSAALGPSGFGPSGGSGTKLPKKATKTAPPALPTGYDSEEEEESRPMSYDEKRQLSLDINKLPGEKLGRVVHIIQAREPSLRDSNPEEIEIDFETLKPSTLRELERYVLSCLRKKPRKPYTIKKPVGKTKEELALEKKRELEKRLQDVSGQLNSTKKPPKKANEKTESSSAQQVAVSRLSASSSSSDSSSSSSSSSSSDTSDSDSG

Target: Bromodomain-containing protein 2 (Homo sapiens, UniProt P25440)
Assay: Binding affinity to human recombinant BRD2 BD1 (72 to 205 residues) by fluorescence polarization assay

## Cc1sc2c(c1C)C(c1ccc(Cl)cc1)=N[C@@H](CC(=O)Nc1ccc(O)cc1)c1nnc(C)n1-2 [BIRABRESIB]
  Ki: 33.2 nM
